Values of other authors, collected in patent US7906545B2, “Prodrugs of CC-1065 analogs” (priority 2002, dated 2011).

System: carboxylesterase
Conditions: in humans, presumably by carboxylesterase; cited from earlier work

CCc1c2c(nc3ccc(OC(=O)N4CCC(N5CCCCC5)CC4)cc13)-c1cc3c(c(=O)n1C2)COC(=O)[C@]3(O)CC [irinotecan]
conversion in vivo to the active drug: readily converted
